Measurements: US10968462B2, “Plants having increased tolerance to herbicides” (BASF AGRO B.V., priority 2013, dated 2021)

Chains of the proteins cited; added tags and fusions are not shown. Residues count along the entry.
UniProt Q0NZW9, 1-534: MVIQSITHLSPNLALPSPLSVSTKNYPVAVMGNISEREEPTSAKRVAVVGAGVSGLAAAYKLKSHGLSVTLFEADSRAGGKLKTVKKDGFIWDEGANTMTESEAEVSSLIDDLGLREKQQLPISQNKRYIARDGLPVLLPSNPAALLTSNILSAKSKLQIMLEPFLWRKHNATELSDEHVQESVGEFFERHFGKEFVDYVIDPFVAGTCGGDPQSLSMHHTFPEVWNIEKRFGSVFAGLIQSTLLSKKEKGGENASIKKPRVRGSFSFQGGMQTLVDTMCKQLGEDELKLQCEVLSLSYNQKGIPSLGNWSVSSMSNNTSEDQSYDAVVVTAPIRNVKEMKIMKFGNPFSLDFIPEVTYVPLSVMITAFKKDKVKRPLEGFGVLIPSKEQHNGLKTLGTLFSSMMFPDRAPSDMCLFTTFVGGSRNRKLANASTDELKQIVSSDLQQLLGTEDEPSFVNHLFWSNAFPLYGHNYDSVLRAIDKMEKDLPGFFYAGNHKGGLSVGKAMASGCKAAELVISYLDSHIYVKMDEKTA
UniProt Q0NZW9, 1-534 F420L/R128C: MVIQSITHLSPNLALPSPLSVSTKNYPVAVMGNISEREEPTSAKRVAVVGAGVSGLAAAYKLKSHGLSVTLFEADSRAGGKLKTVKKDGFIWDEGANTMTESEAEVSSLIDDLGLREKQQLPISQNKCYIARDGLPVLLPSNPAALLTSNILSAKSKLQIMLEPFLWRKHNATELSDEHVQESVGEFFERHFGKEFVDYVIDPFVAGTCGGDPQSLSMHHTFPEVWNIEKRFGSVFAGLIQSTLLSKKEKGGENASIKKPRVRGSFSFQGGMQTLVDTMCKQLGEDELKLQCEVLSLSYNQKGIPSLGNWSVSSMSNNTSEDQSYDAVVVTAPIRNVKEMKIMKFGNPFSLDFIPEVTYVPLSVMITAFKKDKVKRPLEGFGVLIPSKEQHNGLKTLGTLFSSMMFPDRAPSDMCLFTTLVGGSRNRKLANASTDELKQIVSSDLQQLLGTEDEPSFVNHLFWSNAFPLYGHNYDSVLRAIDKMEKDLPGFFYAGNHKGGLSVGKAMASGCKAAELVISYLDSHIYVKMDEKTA
UniProt Q0NZW9, 1-534 F420M/R128A: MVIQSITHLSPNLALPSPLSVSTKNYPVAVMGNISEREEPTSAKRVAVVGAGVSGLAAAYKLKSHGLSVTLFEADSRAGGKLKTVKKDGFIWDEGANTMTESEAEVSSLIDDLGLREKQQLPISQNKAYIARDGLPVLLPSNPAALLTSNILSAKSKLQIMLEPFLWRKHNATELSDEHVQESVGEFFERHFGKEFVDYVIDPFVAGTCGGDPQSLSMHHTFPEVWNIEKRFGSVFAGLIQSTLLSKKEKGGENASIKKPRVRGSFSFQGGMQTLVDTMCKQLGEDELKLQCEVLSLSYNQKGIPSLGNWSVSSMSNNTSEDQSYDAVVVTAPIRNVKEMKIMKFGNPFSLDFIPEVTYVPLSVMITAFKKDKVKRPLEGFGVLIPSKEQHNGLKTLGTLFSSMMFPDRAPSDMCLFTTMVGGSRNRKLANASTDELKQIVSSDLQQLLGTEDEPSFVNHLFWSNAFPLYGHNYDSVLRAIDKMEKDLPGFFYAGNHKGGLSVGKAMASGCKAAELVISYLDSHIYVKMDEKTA
UniProt Q0NZW9, 1-534 F420M/R128C: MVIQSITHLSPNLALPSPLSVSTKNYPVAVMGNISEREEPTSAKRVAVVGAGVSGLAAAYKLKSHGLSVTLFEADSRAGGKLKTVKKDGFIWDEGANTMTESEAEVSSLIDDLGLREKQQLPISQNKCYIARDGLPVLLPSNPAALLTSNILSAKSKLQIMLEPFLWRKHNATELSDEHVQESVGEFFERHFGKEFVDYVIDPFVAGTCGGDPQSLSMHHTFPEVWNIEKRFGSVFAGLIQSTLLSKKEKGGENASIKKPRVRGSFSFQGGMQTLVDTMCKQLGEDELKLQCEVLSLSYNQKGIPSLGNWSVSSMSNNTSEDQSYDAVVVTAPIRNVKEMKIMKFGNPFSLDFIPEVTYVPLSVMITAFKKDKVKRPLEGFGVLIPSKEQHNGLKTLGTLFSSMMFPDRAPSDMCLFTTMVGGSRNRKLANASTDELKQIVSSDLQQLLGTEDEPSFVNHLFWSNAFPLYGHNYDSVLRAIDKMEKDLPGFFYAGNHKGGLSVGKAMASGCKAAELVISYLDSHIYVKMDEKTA
UniProt Q0NZW9, 1-534 F420M/R128H: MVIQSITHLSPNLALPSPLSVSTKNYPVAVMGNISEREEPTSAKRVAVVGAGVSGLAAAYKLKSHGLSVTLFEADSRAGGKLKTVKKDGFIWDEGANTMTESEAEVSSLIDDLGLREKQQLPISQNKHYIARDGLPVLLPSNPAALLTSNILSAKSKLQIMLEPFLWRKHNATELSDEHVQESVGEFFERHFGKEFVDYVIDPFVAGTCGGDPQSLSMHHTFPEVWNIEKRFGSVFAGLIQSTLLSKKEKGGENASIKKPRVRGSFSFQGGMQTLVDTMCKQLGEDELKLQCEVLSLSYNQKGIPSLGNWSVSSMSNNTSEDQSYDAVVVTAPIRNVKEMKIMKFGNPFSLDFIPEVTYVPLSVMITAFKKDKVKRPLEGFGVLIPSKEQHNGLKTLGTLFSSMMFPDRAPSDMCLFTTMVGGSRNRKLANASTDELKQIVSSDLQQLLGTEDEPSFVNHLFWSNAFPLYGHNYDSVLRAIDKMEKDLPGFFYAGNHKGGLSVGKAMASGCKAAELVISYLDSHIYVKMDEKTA
UniProt Q0NZW9, 1-534 F420M/R128M: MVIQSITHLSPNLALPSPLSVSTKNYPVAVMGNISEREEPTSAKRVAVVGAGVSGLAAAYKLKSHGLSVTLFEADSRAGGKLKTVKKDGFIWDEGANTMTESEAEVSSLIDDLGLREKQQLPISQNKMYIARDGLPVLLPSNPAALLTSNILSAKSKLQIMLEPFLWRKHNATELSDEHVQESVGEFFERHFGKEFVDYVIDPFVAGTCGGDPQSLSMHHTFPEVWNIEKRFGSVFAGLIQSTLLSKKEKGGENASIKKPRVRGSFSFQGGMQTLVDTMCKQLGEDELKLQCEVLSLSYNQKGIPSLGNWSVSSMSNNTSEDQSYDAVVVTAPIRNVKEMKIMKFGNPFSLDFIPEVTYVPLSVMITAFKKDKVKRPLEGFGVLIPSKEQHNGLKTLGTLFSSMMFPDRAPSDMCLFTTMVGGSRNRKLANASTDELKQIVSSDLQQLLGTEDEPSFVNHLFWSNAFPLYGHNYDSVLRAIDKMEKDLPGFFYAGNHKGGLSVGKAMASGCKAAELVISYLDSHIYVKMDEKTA
UniProt Q0NZW9, 1-534 F420M/R128V: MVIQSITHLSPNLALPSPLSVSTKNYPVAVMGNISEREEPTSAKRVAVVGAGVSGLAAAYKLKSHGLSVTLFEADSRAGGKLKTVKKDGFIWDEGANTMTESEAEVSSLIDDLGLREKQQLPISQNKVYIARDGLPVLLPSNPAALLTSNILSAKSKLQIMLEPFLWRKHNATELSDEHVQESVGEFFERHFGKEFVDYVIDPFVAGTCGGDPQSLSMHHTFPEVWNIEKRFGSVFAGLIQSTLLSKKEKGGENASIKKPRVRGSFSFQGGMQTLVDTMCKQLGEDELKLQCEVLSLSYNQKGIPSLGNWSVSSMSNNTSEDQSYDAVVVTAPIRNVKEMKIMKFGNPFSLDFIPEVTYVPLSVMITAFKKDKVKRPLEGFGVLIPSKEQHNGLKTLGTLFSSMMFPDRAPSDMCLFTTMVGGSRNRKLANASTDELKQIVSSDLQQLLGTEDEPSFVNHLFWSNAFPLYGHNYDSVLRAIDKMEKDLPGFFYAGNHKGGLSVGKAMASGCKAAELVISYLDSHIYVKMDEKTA
UniProt Q0NZW9, 1-534 F420V/R128A: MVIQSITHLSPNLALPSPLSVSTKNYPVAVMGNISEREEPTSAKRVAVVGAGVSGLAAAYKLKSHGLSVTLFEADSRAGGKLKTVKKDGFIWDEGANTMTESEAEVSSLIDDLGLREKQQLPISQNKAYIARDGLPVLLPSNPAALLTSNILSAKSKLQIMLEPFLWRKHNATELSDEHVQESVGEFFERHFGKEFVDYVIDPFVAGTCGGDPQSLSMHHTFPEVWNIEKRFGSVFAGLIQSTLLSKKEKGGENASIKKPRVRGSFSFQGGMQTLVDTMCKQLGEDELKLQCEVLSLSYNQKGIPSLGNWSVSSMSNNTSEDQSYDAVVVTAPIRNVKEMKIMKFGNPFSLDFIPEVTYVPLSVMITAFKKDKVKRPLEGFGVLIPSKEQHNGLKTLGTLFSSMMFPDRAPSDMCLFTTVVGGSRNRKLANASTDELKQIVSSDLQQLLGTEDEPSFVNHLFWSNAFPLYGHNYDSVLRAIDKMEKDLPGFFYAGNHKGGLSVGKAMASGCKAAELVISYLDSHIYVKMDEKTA
UniProt Q0NZW9, 1-534 F420V/R128C: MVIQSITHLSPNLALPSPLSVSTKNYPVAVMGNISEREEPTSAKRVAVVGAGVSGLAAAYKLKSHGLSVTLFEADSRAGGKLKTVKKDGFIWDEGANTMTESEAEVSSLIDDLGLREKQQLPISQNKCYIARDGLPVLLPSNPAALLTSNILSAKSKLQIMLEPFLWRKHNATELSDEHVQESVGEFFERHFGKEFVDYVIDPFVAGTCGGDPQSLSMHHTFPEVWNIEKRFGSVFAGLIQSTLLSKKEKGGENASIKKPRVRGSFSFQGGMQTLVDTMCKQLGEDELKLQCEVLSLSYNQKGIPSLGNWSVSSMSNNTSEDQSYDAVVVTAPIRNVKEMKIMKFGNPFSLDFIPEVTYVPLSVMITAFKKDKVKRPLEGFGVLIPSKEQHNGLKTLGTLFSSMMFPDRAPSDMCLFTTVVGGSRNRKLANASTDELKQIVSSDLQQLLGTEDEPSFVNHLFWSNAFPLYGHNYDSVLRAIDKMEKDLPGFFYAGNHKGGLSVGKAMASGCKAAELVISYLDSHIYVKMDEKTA
UniProt Q0NZW9, 1-534 F420V/R128I: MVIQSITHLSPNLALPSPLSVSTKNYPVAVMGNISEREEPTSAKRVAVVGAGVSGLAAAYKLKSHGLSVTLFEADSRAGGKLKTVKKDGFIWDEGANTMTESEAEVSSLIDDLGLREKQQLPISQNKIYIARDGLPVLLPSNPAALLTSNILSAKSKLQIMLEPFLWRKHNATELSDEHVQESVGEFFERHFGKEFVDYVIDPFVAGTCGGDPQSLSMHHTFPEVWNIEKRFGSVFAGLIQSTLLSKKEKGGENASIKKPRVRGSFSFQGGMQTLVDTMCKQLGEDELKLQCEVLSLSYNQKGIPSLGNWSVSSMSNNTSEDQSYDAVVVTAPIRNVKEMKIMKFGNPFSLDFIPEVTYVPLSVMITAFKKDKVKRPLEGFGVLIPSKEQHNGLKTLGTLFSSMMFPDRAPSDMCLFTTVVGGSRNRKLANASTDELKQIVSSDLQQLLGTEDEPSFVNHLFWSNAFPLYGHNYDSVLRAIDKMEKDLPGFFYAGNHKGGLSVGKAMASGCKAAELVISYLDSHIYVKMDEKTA

Assays:
Test in all cases: PPO enzyme assay (recombinant), IC50 on wild type and amino acid substituted PPO2
Format in all cases: biochemical, Amaranthus tuberculatum
[1] = molecular target: wild type and amino acid substituted PPO enzyme (PPO2) of SEQ ID NO: 2 (AMARE) (Amaranthus tuberculatus, UniProt Q0NZW9, R128M/F420M, form not given); settings: mutation R128M, F420M
[2] = molecular target: wild type and amino acid substituted PPO enzyme (PPO2) of SEQ ID NO: 2 (AMARE) (Amaranthus tuberculatus, UniProt Q0NZW9, R128H/F420M, form not given); settings: mutation R128H, F420M
[3] = molecular target: wild type and amino acid substituted PPO enzyme (PPO2) of SEQ ID NO: 2 (AMARE) (Amaranthus tuberculatus, UniProt Q0NZW9, R128A/F420M, form not given); settings: mutation R128A, F420M
[4] = molecular target: wild type and amino acid substituted PPO enzyme (PPO2) of SEQ ID NO: 2 (AMARE) (Amaranthus tuberculatus, UniProt Q0NZW9, R128C/F420L, form not given); settings: mutation R128C, F420L
[5] = molecular target: wild type and amino acid substituted PPO enzyme (PPO2) of SEQ ID NO: 2 (AMARE) (Amaranthus tuberculatus, UniProt Q0NZW9); settings: PPO enzyme WT
[6] = molecular target: wild type and amino acid substituted PPO enzyme (PPO2) of SEQ ID NO: 2 (AMARE) (Amaranthus tuberculatus, UniProt Q0NZW9, R128A/F420V, form not given); settings: mutation R128A, F420V
[7] = molecular target: wild type and amino acid substituted PPO enzyme (PPO2) of SEQ ID NO: 2 (AMARE) (Amaranthus tuberculatus, UniProt Q0NZW9, R128C/F420M, form not given); settings: mutation R128C, F420M
[8] = molecular target: wild type and amino acid substituted PPO enzyme (PPO2) of SEQ ID NO: 2 (AMARE) (Amaranthus tuberculatus, UniProt Q0NZW9, R128I/F420V, form not given); settings: mutation R128I, F420V
[9] = molecular target: wild type and amino acid substituted PPO enzyme (PPO2) of SEQ ID NO: 2 (AMARE) (Amaranthus tuberculatus, UniProt Q0NZW9, R128C/F420V, form not given); settings: mutation R128C, F420V
[10] = molecular target: wild type and amino acid substituted PPO enzyme (PPO2) of SEQ ID NO: 2 (AMARE) (Amaranthus tuberculatus, UniProt Q0NZW9, R128V/F420M, form not given); settings: mutation R128V, F420M

C#CCOc1cc(-n2nc(C(C)(C)C)oc2=O)c(Cl)cc1Cl
IC50 [1]: 0.0333 µM
IC50 [2]: 0.0132 µM
IC50 [3]: 0.0197 µM
IC50 [4]: 3.01 µM
IC50 [5]: 0.000364 µM
IC50 [6]: 0.0438 µM
IC50 [7]: 0.0624 µM
IC50 [8]: 0.0276 µM
IC50 [9]: 0.146 µM
IC50 [10]: 0.034 µM
